From PubChem BioAssay AID777 (Sanford-Burnham Center for Chemical Genomics, 2007)
This is a selection; strong and weak results do not stand in their true shares. Activity calls are given as the source filed them.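 Rule for the calls: active = blocking of liver enzyme CYP2C9 beyond about 50% at 5 µM (limit read from the data); inactive = the rest.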

Chains of the proteins cited; added tags and fusions are not shown.
UniProt P11712, whole entry: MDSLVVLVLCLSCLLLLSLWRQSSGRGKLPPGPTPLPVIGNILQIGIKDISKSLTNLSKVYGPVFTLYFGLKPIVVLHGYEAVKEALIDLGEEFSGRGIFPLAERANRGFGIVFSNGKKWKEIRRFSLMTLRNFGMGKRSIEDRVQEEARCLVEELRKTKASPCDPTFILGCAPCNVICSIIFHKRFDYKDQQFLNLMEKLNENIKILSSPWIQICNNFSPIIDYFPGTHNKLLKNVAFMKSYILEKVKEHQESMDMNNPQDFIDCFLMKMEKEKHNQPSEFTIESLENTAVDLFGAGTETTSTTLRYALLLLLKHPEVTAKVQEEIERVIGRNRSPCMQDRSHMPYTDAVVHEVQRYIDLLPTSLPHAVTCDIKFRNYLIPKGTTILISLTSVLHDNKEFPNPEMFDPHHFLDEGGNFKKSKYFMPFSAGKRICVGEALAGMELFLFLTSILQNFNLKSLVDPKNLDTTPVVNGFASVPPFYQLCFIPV

Each compound was assayed against Cytochrome P450 2C9 (Homo sapiens) (UniProt P11712) (assay: blockers of cytochrome P450 2C9 activity – biochemical, luminescence, ADME assay, primary screen (AID 777)). Details: CYP2C9 Supersomes, luciferin-H conversion, at 5 µM, stronger effect = higher value.
`N#CC1(Nc2ccccc2)CCN(CCc2ccccc2)CC1` was tested, and the inhibition was inactive: -3.5%.
With `O=C(NCC1(N2CCOCC2)CCCCC1)c1cc(=O)[nH]c2ccccc12` the inhibition was inactive: 2.6%.
For `O=C(OC1CN2CCC1CC2)C1c2ccccc2Oc2ccccc21` (stereo not given), the inhibition was inactive: 4.7%.
`O=C(NCC1(N2CCOCC2)CCCCC1)c1cc2ccccc2o1` was tested, and the inhibition was inactive: 28.2%.
With `COc1ccc(NC2CCN(CCc3ccccc3)CC2)c(OC)c1` the inhibition was inactive: 8.2%.
`Fc1ccccc1NC1CCN(Cc2ccccc2)CC1` was tested, and the inhibition was inactive: 13%.
With `CCOc1ncccc1C(=O)NCC1(N2CCOCC2)CCCCC1` the inhibition was active: 52.3%.
In the case of `CCC(CO)(C(=O)OC1CN2CCC1CC2)c1ccccc1` (stereo not given), the inhibition is reported as inactive: -24%.
In the case of `N/C(=N\O)c1c(N)no[n+]1[O-]`, the inhibition is reported as inactive: 8.1%.
`c1ccc(CN2CCC(Nc3ccccc3)CC2)cc1` was tested, and the inhibition was active: 50.5%.
